The numbers were not newly measured in patent US11219627B2, “Clearance of amyloid beta” (priority 2014, dated 2022), which cites them from elsewhere.

This data set has as its system Alzheimer patients. The settings on record: cited from earlier work.

Where two headings read alike, the source gives them in different places.

In the case of “bapineuzumab: an antibody to the N-terminus of Aβ”, the “cortical amyloid lower in treated than in untreated patients” value (78 weeks) was 25%. Where the note is “ApoE4+ homozygotes”, the “ARIA occurrence (fraction)” value is “About ⅓”. Further, where the note is “ApoE4+ patients at low dose, and ApoE4− patients at high dose”, the ARIA occurrence entry was “about 20%”. Further, the deaths reads like this: (ApoE4 carriers) 2.2%; (noncarriers) 2.1%. Besides, where the note is “retrospective review of MRIs”, the “incidence of vasogenic edema” value is listed as 17%.
